# Test system: IL-8
# Assay: LPS-induced IL-8 release in d-U937 cells
# Assay type: cell-based
# Conditions: Homo sapiens, dU937, dU937 cells
# Experimental: U937 cells, a human monocytic cell line, were differentiated into macrophage-type cells by incubation with PMA (100 ng/mL) for 48 to 72 hr. Cells were pre-incubated with final concentrations of test compound for 2 hr and were then stimulated with LPS (0.1 μg/mL; from E. Coli: O111:B4, Sigma) for 4 hr. The supernatant was collected for determination of TNFα and IL-8 concentrations by sandwich ELISA (Duo-set, R&D systems). […] The relative 50% effective concentration (REC50) was determined from the resultant concentration-response curve. The inhibition of IL-8 production was calculated at each concentration of test compound by comparison with vehicle control.
smiles,measurement,value
"Cc1ccc(-n2nc(C(C)(C)C)cc2NC(=O)Nc2ccc(Oc3ccnc(Nc4ccccc4)n3)c3ccccc23)cc1 [Example 1, 1-(3-(tert-Butyl)-1-(p-tolyl)-1H-pyrazol-5-yl)-3-(4-(2-(phenylamino)pyrimidin-4-yloxy)naphthalen-1-yl)urea]",IC50,2.2 nM

# Reference: US10238658B2, “1-pyrazolyl-3-(4-((2-anilinopyrimidin-4-yl) oxy) napththalen-1-yl) ureas as p38 MAP kinase inhibitors” (Respivert Limited, priority 2011, dated 2019)
